Values quoted from earlier work in PMC8875242, “Evaluation of the Potency of Anti-HIV and Anti-HCV Drugs to Inhibit P-Glycoprotein Mediated Efflux of Digoxin in Caco-2 Cell Line and Human Precision-Cut Intestinal Slices” (Pharmaceuticals, 2022).

Conditions: healthy volunteers; cited from earlier work

maraviroc
Total exposure to digoxin in the presence of the drug: unaffected
